Blank lines part the entries; values can stand above or below the molecule they belong to.
Legend:
[1] = target: Carbonic anhydrase 9 (Homo sapiens) (UniProt Q16790); experiment: Activation of human recombinant CA9 catalytic domain by stopped-flow CO2 hydration method
[2] = target: Carbonic anhydrase 12 (Homo sapiens) (UniProt O43570); experiment: Activation of human recombinant CA12 catalytic domain by stopped-flow CO2 hydration method
[3] = test system: N[C@@H](Cc1ccccc1)C(=O)O; conditions: Homo sapiens; 10 uM
[4] = test system: N[C@H](Cc1ccccc1)C(=O)O; conditions: Homo sapiens; 10 uM
[5] = substrate: N[C@@H](Cc1ccccc1)C(=O)O; conditions: Homo sapiens; 10 uM; remark: listed apart in the source
[6] = substrate: N[C@H](Cc1ccccc1)C(=O)O; conditions: Homo sapiens; 10 uM; remark: listed apart in the source

Molecule: Carbonic anhydrase 9 (Homo sapiens) (from UniProt Q16790)
- kcat [3]: 4.7 10^5/s
- kcat [4]: 6.1 10^5/s

B1: Carbonic anhydrase 12 (Homo sapiens), O43570 (protein)
chain: MPRRSLHAAAVLLLVILKEQPSSPAPVNGSKWTYFGPDGENSWSKKYPSCGGLLQSPIDLHSDILQYDASLTPLEFQGYNLSANKQFLLTNNGHSVKLNLPSDMHIQGLQSRYSATQLHLHWGNPNDPHGSEHTVSGQHFAAELHIVHYNSDLYPDASTASNKSEGLAVLAVLIEMGSFNPSYDKIFSHLQHVKYKGQEAFVPGFNIEELLPERTAEYYRYRGSLTTPPCNPTVLWTVFRNPVQISQEQLLALETALYCTHMDDPSPREMINNFRQVQKFDERLVYTSFSQVQVCTAAGLSLGIILSLALAGILGICIVVVVSIWLFRRKSIKKGDNKGVIYKPATKMETEAHA
- kcat [5]: 12.4 10^5/s
- kcat [6]: 16.7 10^5/s

Continued, values first:

- KA [1]: 9.3 µM
- KA [2]: 0.37 µM
Molecule: N[C@H](Cc1ccccc1)C(=O)O

- KA [1]: 16.3 µM
- KA [2]: 1.38 µM
Molecule: N[C@@H](Cc1ccccc1)C(=O)O
